Measurements taken from patent US20170360949A1 (TIANJIN INSTITUTE OF INDUSTRIAL BIOTECHNOLOGY CHINESE …, published 2017).

Molecular target: T1, GLP-1 receptor (GLP-1R) on rat insulinoma cells RINm5F (rat (rat insulinoma cells RINm5F), UniProt P32301 22-463)
T1 sequence (looked up): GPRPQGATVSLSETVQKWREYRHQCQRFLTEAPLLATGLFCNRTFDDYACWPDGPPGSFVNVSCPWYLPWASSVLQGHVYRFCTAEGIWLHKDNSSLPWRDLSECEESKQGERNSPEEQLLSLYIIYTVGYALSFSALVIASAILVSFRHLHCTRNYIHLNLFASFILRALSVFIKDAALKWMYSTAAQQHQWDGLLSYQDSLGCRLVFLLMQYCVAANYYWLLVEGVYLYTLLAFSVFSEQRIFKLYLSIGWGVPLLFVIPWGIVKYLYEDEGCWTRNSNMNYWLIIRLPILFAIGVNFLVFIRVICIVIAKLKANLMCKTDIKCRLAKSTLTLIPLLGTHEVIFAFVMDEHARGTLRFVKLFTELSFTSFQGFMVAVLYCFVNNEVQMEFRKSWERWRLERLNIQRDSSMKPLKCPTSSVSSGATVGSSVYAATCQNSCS
Assay: cell-based or functional assay

EC50 of cAMP production by RINm5F cells (cAMP-Glo Assay): 0.35 nM
B1: Z1Z2/GLTe complex (other)
chain 1: GAMATQAPTFTQPLQSVVVLEGSTATFEAHISGFPVPEVSWFRDGQVISTSTLPGVQISFSDGRAKLTIPAVTKANSGRYSLKATNGSGQATSTAELLVKAETAPPNFVQRLQSMTVRQGSQVRLQVRVTGIPTPVVKFYRDGAEIQSSLDFQISQEGDLYSLLIAEAYPEDSGTYSVNATNSVGRATSTAELLVQG
chain 2: HAEGTFTSDVSSYLEGQAAKEFIAWLVKGRGGGGGSGGGGSGGGGSAMATSELSSEVSEENSERREAFWAEWKDLTLSTRPEEGSSLHEEDTQRHETYHQQGQSQVLVQRSPWLMMRMGILGRGLQEYQLPYQRVLP
